Results published in patent publication US9815796B2 (Merck Sharp & Dohme Corp., priority 2013, dated 2017).

By UniProt entry, the sequences of proteins in these tests, tags left out. Chains listed by the source or under a name are the forms on record and can include a tag or linker. Residues count along the entry.
UniProt O00408, other isoform, or with tags, fused parts or gaps: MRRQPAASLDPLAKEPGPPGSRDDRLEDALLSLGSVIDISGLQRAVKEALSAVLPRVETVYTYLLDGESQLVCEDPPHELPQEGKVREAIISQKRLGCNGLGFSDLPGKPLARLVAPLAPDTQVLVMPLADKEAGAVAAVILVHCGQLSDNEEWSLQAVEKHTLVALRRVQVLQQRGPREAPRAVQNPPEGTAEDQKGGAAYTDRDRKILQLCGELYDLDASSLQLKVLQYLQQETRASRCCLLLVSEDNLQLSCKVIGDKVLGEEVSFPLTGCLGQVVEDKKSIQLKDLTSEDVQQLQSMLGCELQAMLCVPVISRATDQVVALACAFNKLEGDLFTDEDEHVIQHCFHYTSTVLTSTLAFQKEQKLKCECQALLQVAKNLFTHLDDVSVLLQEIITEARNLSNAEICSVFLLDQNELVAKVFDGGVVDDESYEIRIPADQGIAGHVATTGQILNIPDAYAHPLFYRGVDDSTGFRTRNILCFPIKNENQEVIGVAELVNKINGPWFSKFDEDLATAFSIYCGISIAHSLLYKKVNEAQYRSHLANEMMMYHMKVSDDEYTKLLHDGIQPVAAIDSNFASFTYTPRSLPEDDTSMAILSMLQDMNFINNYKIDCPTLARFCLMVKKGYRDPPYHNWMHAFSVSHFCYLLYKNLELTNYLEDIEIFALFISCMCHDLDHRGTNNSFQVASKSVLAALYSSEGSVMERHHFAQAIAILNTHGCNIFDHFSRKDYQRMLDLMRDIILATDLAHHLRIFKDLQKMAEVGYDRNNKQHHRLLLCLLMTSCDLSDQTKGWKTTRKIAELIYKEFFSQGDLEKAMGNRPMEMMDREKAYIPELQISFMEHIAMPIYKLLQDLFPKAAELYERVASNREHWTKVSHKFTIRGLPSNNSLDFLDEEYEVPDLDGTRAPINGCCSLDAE
UniProt B3VTJ2, 1-941: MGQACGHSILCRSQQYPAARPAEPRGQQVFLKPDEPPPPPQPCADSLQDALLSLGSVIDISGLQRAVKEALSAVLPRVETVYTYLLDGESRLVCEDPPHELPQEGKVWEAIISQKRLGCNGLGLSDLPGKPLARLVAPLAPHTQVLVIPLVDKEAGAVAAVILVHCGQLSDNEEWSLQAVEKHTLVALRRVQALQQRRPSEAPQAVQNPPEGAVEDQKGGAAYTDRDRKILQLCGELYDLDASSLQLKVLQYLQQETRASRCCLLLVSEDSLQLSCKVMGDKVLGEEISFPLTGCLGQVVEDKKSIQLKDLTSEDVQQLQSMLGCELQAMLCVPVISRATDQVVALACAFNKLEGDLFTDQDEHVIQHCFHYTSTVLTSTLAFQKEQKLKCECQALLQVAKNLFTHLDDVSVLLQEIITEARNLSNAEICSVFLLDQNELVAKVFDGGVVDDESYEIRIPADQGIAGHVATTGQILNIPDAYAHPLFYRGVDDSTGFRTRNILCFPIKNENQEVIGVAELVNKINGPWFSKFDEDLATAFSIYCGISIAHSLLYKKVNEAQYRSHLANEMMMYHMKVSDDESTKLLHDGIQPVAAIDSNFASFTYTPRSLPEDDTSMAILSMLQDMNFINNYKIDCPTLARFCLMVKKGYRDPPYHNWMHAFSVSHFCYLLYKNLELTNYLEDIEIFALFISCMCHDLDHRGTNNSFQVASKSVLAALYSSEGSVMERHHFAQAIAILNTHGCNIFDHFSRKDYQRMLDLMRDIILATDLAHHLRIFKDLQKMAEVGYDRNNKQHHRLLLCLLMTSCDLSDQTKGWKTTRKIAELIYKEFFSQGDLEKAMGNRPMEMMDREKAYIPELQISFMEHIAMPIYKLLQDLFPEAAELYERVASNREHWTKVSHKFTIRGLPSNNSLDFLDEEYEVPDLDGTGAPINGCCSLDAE

Each compound was assayed against human PDE2A1 (Homo sapiens (Human), UniProt O00408) (assay: IMAP FP PDE selectivity panel, human PDE2A1). Conditions: Human PDE2, Lab B.
Assay type: biochemical
Experimental: Selectivity for PDE2, as compared to other PDE families, was assessed using the IMAP® technology. Human PDE 10A2 enzyme was prepared from cytosolic fractions of transiently transfected HEK cells. All other PDE's were GST Tag human enzyme expressed in insect cells and were obtained from BPS Bioscience (San Diego, Calif.): PDE1A (Cat#60010), human PDE2A1 (Cat#60020), PDE3A (Cat#60030), PDE4A1A (Cat#60040), PDE5A1 (Cat#60050), PDE6C (Cat#60060), PDE7A (Cat#60070), PDE8A1 (Cat#60080), PDE9A2 (Cat#60090), PDE11A4 (Cat#60110).
Assays for PDE 1 through 11 were performed in parallel at room temperature in 384-well microtiter plates with an incubation volume of 20.2 μL. Solutions of test compounds were prepared in DMSO and serially diluted with DMSO to yield 30 μL of each of ten solutions differing by 3-fold in concentration, at 32 serial dilutions per plate. […] A Labcyte POD 810 (Labcyte, Sunnyvale, Calif.) was used to dispense 200 nL from each well of the titration plate to make eleven copies of the assay plate for each titration, one copy for each PDE enzyme. […] The plates were incubated at room temperature for one hour, then the parallel and perpendicular fluorescence was measured using a Tecan Genios Pro plate reader (Tecan, Switzerland). The apparent inhibition constants for the compounds against all 11 PDE's was determined from the parallel and perpendicular fluorescent readings as described for PDE10 FP assay using the following apparent KM values for each enzyme and substrate combination: PDE1A (FAM cGMP) 70 nM, human PDE2A1 (FAM cAMP) 10,000 nM, PDE3A (FAM cAMP) 50 nM, PDE4A1A (FAM cAMP) 1500 nM, PDE5A1 (FAM cGMP) 400 nM, PDE6C (FAM cGMP) 700 nM, PDE7A (FAM cAMP) 150 nM, PDE8A1 (FAM cAMP) 50 nM, PDE9A2 (FAM cGMP) 60 nM, PDE10A2 (FAM cAMP) 150 nM, PDE11A4 (FAM cAMP) 1000 nM. The intrinsic PDE2 inhibitory activity of a compound which may be used in accordance with the present invention may be determined by these assays.

Row | Ki [nM] | SMILES
1 | 329 | Cc1nc(C(=O)N[C@]2(c3ccc(C(C)(C)C)cc3)C[C@H]2C)cc(=O)[nH]1 (single isomer, unassigned) [Example 666, N-[1-(4-tert-butylphenyl)-2-methylcyclopropyl]-2-methyl-6-oxo-1,6-dihydropyrimidine-4-carboxamide]
2 | 10 | Cc1nc(C(=O)N[C@]2(c3ccc(C(C)(C)C)cc3)C[C@H]2C)cc(=O)[nH]1 (single isomer, unassigned) [Example 667, N-[1-(4-tert-butylphenyl)-2-methylcyclopropyl]-2-methyl-6-oxo-1,6-dihydropyrimidine-4-carboxamide]
3 | 17 | Cc1nc(C(=O)NC(c2ccc(C(F)(F)F)cc2)C(C)(C)O)cc(=O)[nH]1 (stereo not drawn) [Example 722, N-{2-hydroxy-2-methyl-1-[4-(trifluoromethyl)phenyl]propyl}-2-methyl-6-oxo-1,6-dihydropyrimidine-4-carboxamide]

What follows are compounds tested against Rhesus PDE2A3 (Macaca mulatta, UniProt B3VTJ2) (assay: PDE2 fluorescence polarization (IMAP FP) inhibition assay, rhesus enzyme). Conditions: Rhesus PDE2, Lab B.
Assay type: biochemical, rhesus macaque
Experimental: The activity of the compounds in accordance with the present invention as PDE2 inhibitors may be readily determined using a fluorescence polarization (FP) methodology (Huang, W., et al., J. Biomol Screen, 2002, 7: 215).
In a typical experiment the PDE2 inhibitory activity of the compounds of the present invention was determined in accordance with the following experimental method. Rhesus PDE2A3 was amplified from rhesus macaque brain cDNA (Biochain Institute, Hayward, Calif.) using primers based on human PDE2A sequence (accession NM_002599.3) where the forward primer containing a Kozak consensus was 5′-[…]-3′ and the reverse primer was 5′-[…]-3′. Amplification with Easy-A High-Fidelity PCR cloning enzyme (Stratagene, La Jolla, Calif.) was 95° C. for 2 minutes followed by thirty three cycles of 95° C. for 40 seconds, 52° C. for 30 seconds, and 72° C. for 2 minutes 48 seconds. Final extension was 72° C. for 7 minutes. The PCR product was TA cloned into pcDNA3.3-TOPO (Invitrogen, Carlsbad, Calif.) according to standard protocol. […] The fluorescence polarization assay for cyclic nucleotide phosphodiesterases was performed using an IMAP® FP kit supplied by Molecular Devices, Sunnyvale, Calif. […] 0% of inhibition is determined by using DMSO (1% final concentrations).
A Labcyte Echo 555 (Labcyte, Sunnyvale, Calif.) is used to dispense 200 nL from each well of the titration plate to the 384 well assay plate. […] The plate was incubated at room temperature for at least one hour prior to determining the fluorescence polarization (FP). The parallel and perpendicular fluorescence of each well of the plate was measured using a Tecan Genios Pro plate reader (Tecan, Switzerland) or Perkin Elmer EnVision™ plate reader (Waltham, Mass.). Fluorescence polarization (mP) was calculated from the parallel (S) and perpendicular (P) fluorescence of each sample well and the analogous values for the median control well, containing only substrate (So and Po), using the following equation: Polarization (mP)=1000*(S/So−P/Po)/(S/So+P/Po).

Row | Ki [nM] | SMILES
4 | > 2970 | Cc1nc(C(=O)NC(c2ccc(C(F)(F)F)cc2)C(C)(C)O)cc(=O)[nH]1 (single isomer, unassigned) [Example 725, N-{2-hydroxy-2-methyl-1-[4-(trifluoromethyl)phenyl]propyl}-2-methyl-6-oxo-1,6-dihydropyrimidine-4-carboxamide]
5 | 11 | Cc1nc(C(=O)NC(c2ccc(C(F)(F)F)cc2)C(C)(C)O)cc(=O)[nH]1 (single isomer, unassigned) [Example 726, N-{2-hydroxy-2-methyl-1-[4-(trifluoromethyl)phenyl]propyl}-2-methyl-6-oxo-1,6-dihydropyrimidine-4-carboxamide]
6 | 13 | Cc1nc(C(=O)NC(c2ccc(C(F)(F)F)cc2)C(C)(C)O)cc(=O)[nH]1 (stereo not drawn) [Example 722, N-{2-hydroxy-2-methyl-1-[4-(trifluoromethyl)phenyl]propyl}-2-methyl-6-oxo-1,6-dihydropyrimidine-4-carboxamide]
